The text below walks through data of ChEMBL document CHEMBL3407489, “Bis-aryl urea derivatives as potent and selective LIM kinase (Limk) inhibitors” (J Med Chem, 2015).

Protein sequences, listed by entry. Tags and fused reporters are not part of them. Lines headed by an entry give the natural chain unless they say otherwise; changes in a name come on top.
UniProt P53669: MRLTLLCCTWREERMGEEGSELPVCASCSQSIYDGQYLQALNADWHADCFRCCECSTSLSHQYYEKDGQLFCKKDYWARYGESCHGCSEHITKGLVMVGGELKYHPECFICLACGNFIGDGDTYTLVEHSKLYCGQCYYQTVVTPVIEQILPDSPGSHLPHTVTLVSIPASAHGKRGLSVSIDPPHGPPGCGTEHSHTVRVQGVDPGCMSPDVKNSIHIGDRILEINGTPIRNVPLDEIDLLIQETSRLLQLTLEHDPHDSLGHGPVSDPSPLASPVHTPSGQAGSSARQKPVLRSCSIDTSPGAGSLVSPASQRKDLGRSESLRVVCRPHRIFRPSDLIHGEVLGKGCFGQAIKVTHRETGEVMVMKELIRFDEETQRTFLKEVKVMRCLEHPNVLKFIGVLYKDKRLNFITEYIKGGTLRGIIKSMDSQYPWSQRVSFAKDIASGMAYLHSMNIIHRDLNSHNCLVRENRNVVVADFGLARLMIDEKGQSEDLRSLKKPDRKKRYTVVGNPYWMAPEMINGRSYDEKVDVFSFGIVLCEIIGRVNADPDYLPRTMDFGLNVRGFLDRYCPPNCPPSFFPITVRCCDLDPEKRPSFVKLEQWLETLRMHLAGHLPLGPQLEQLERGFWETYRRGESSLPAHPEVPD

As a reminder, the IC50 is the concentration at which inhibition is half-maximal.

For the assay, the target named is LIM domain kinase 1 (Rattus norvegicus, UniProt P53669). Description: Inhibition of Limk1 in rat A7r5 cells assessed as reduction in cofilin phosphorylation by Western blot method. Format: cell-based. On the technique in general: A western blot detects proteins with antibodies after separation by electrophoresis.

Turning to `Cc1ccc(N(CCO)C(=O)Nc2ccc(-c3ncnc4[nH]cc(C)c34)cc2)cc1`, the IC50 stood at 190 nM.
Next, `COc1ccc(N(CCO)C(=O)Nc2ccc(-c3ncnc4[nH]cc(C)c34)cc2)cc1`: 730 nM.
